Reference: ChEMBL document CHEMBL5550170, “Discovery of novel benzimidazole derivatives as selective and reversible monoamine oxidase B inhibitors for Parkinson's disease treatment” (Eur J Med Chem, 2024)

The chains behind the UniProt entries cited, without tags or fusion partners.
UniProt P21397, whole entry: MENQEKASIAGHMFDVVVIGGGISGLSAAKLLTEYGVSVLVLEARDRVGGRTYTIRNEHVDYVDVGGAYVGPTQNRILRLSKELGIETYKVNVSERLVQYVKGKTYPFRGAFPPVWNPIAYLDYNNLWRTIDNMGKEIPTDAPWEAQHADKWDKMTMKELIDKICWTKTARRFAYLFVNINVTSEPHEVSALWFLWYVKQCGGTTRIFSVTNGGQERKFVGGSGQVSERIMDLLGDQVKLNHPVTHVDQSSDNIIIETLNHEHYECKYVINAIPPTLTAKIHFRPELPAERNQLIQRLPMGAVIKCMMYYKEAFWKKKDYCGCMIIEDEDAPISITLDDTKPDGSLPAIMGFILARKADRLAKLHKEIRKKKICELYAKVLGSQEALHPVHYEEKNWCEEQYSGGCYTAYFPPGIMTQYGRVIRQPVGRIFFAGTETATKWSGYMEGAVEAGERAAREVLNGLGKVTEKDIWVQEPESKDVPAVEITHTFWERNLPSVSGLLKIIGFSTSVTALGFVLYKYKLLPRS

Target: Amine oxidase [flavin-containing] A (Homo sapiens, UniProt P21397)

## C#CCN(C)Cc1ccccc1 [PARGYLINE]
  IC50: 40 µM
